{"source": "patent US10870627B2", "about": "“Salt of quinazoline derivative, preparation method therefor and application thereof” (SHANGHAI PHARMACEUTICALS HOLDING CO., LTD., priority 2016, dated 2020)", "key": {"[1]": {"experiment": "Solution stability test", "type": "physicochemical", "protocol": "About 15 mg of the sample was weighed accurately, dissolved with 25 mL of the test solvent (10% aqueous acetone solution, pH=4.0 B-R buffer solution, SGF, SIF) via ultrasound for 20 minutes. The solution was divided into four portions and placed in the clear glass vials, followed by sealing. The samples were exposed in different environments and sampled on day 0 and day 5. The purity of each sample was determined by HPLC, and the number of impurities greater than 0.05% was calculated and compared with the samples on day 0. The exposure environments are:\nRoom temperature and light-proof test, 25° C.; […]\nIllumination experiment (4500±500 lx), 25° C.;\nOxidation experiment (3% v/v hydrogen peroxide), 25° C."}, "[2]": {"experiment": "Solid-state stability test", "type": "physicochemical", "protocol": "An appropriate amount of the drugs were placed in the surface dish, spread to a thickness of 3-5 mm, and exposed in high temperature, high temperature and high humidity, illumination and oxidation conditions for 10 days respectively, and the solid-state characterization was performed. The purity and the number of impurities 0.05%) of the samples for testing were determined by HPLC, and compared with the samples on day 0. The exposure conditions are:\nHigh temperature (an oven with T=60° C.);\nHigh temperature and high humidity (40° C., a chamber with constant temperature and 75% relative humidity);\nIllumination (25° C., a 4500±500 lx light incubator);\nOxidation (25° C., a closed container containing urea hydrogen peroxide)."}, "[3]": {"experiment": "Comparison of absorption in rats after intragastric administration of free base and salt (plasma pharmacokinetics)", "type": "in vivo, SD rats", "conditions": "oral, same dose, free base and 6 salts", "protocol": "The blood sample was centrifuged at 8000 RPM for 5 minutes, followed by the isolation of the upper plasma. […] 200 μL of the supernatant was taken and centrifuged again for 10 minutes. 50 μL of the supernatant was injected in a 96-well plate. The plasma drug concentration was determined by LC/MS/MS, and the corresponding pharmacokinetic parameters were calculated."}, "[4]": {"experiment": "Dynamic vapor sorption (DVS), isothermal absorption analysis", "type": "physicochemical", "protocol": "In the present invention, according to the common knowledge in the art, the amount of water absorption obtained from the dynamic vapor sorption (DVS) pattern is expressed in percentage by weight.\nThe isothermal absorption analysis (DVS) data was collected from TA Instruments Q5000 TGA. The software for instrument control was Thermal Advantage and software for analysis was Universal Analysis. 1-10 mg of the sample was generally placed in a platinum crucible, and the weight change of the sample during the relative humidity changing from 20% to 80% was recorded by the TA software. Depending on the specifics of the sample, different steps of sample adsorption and desorption were also involved."}, "[5]": {"conditions": "SGF, 5 d, Illumination (4500±500 lx, 25° C.)"}}}
{"smiles": "C=C(F)C(=O)Nc1cc2c(Nc3ccc(F)c(Cl)c3)ncnc2cc1OCCCN1CCOCC1.O=S(=O)(O)CCS(=O)(=O)O", "values": [{"measurement": "Purity", "setting": "[1]; 10% aqueous acetone solution, 0 d", "result": 99.1, "unit": "%"}, {"measurement": "Purity", "setting": "[1]; 10% aqueous acetone solution, 5 d, Illumination (4500±500 lx, 25° C.)", "result": 99.1, "unit": "%"}, {"measurement": "Purity", "setting": "[1]; SGF, 5 d, High temperature", "result": 98.9, "unit": "%"}, {"measurement": "Purity", "setting": "[1]; [5]", "result": 98.9, "unit": "%"}, {"measurement": "Purity", "setting": "[1]; SGF, 5 d, Oxidation (3% v/v hydrogen peroxide, 25° C.)", "result": 80.8, "unit": "%"}]}
{"smiles": "C=C(F)C(=O)Nc1cc2c(Nc3ccc(F)c(Cl)c3)ncnc2cc1OCCCN1CCOCC1", "note": "[N-[4-(3-chloro-4-fluoroanilino)]-7-(3-morpholinopropoxy)-6-(2-fluoroacrylamido)-quinazoline, reference compound]", "values": [{"measurement": "Purity", "setting": "[2]; 0 d", "result": 99.1, "unit": "%"}]}
{"smiles": "C=C(F)C(=O)Nc1cc2c(Nc3ccc(F)c(Cl)c3)ncnc2cc1OCCCN1CCOCC1.O=S(=O)(O)O", "values": [{"measurement": "absorption, comparison in words", "setting": "[3]", "result": "better absorbed"}]}
{"smiles": "C=C(F)C(=O)Nc1cc2c(Nc3ccc(F)c(Cl)c3)ncnc2cc1OCCCN1CCOCC1.O.O.O.O.O=C(O)C(O)C(O)C(=O)O", "values": [{"measurement": "loss of hydrate water at low relative humidity (DVS), in words", "setting": "[4]", "result": "large amounts of water is eliminated rapidly at the relative humidity of 10%"}]}
{"smiles": "C=C(F)C(=O)Nc1cc2c(Nc3ccc(F)c(Cl)c3)ncnc2cc1OCCCN1CCOCC1.O.O.O=C(O)CC(O)(CC(=O)O)C(=O)O", "note": "[crystal form 11 of the dihydrate]", "values": [{"measurement": "loss of hydrate water at low relative humidity (DVS), in words", "setting": "[4]", "result": "hydrate water is eliminated below the relative humidity of 50%"}]}
{"smiles": "C=C(F)C(=O)Nc1cc2c(Nc3ccc(F)c(Cl)c3)ncnc2cc1OCCCN1CCOCC1.O=S(=O)(O)c1ccccc1", "values": [{"measurement": "Purity", "setting": "[2]; 0 d", "result": 98.5, "unit": "%"}, {"measurement": "Purity", "setting": "[2]; 10 d, High temperature (oven, T=60° C.)", "result": 98.5, "unit": "%"}, {"measurement": "Purity", "setting": "[2]; 10 d, High temperature and high humidity (40° C., 75% relative humidity)", "result": 98.5, "unit": "%"}, {"measurement": "Purity", "setting": "[2]; 10 d, Illumination (25° C., 4500±500 lx)", "result": 98.5, "unit": "%"}, {"measurement": "Purity", "setting": "[2]; 10 d, Oxidation (25° C., closed container with urea hydrogen peroxide)", "result": 98.5, "unit": "%"}, {"measurement": "absorption, comparison in words", "setting": "[3]", "result": "better absorbed"}, {"measurement": "Purity", "setting": "[1]; 10% aqueous acetone solution, 5 d, High temperature and high humidity", "result": 96.8, "unit": "%"}, {"measurement": "Purity", "setting": "[1]; B-R Buffer solution (pH=4.0), 0 d", "result": 98.5, "unit": "%"}, {"measurement": "Purity", "setting": "[1]; B-R Buffer solution (pH=4.0), 5 d, Illumination (4500±500 lx, 25° C.)", "result": 98.5, "unit": "%"}, {"measurement": "Purity", "setting": "[1]; SGF, 0 d", "result": 98.9, "unit": "%"}, {"measurement": "Purity", "setting": "[1]; SGF, 5 d, High temperature", "result": 98.8, "unit": "%"}, {"measurement": "Purity", "setting": "[1]; [5]", "result": 98.9, "unit": "%"}]}
{"smiles": "C=C(F)C(=O)Nc1cc2c(Nc3ccc(F)c(Cl)c3)ncnc2cc1OCCCN1CCOCC1.O.O.O=C(O)CC(O)(CC(=O)O)C(=O)O", "note": "[crystal form 7 of the dihydrate]", "values": [{"measurement": "loss of hydrate water at low relative humidity (DVS), in words", "setting": "[4]", "result": "one water molecule is eliminated below a relative humidity of 10%"}]}
